According to patent publication US10538487B2, “Sulfonylureas and related compounds and use of same” (priority 2015, dated 2020):

Assays:
[1] = Compound levels in blood plasma of mice after oral gavage (LC-MS/MS); conditions: mouse, in vivo, 2 hour timepoint after oral gavage at 20 mg/Kg
Experimental: 100 mL ACN and 5 μL of 10 mM carbutamide in DMSO (ACN with 135 ng/mL carbutamide MS internal standard).
A 1 mg/mL of test compound in 10 mM NH4HCO3 was prepared and diluted 10-fold to give a 100,000 ng/mL stock solution. A series of 10-fold dilutions of the 100,000 ng/mL stock solution with 10 mM NH4HCO3 gave concentrations of 10,000, 1,000, 100 and 10 ng/mL. The 100,000 ng/mL stock solution was diluted to 3:7 with 10 mM NH4HCO3 to give a concentration of 30,000 ng/mL and a series of 10-fold dilutions gave concentrations of 3,000, 300, 30 and 3 ng/mL.
20 μL of test compound-containing solution and 160 μL precipitation solution were added to 20 μL of mouse plasma in a low binding Eppendorf tube. […]
The samples were analysed on an AB Sciex 4000QTrap MS with 2 Shimadzu Nexera LC-30AD Solvent Delivery Units, Shimadzu Nexera SIL-30AC Auto-Sampler, Shimadzu Prominence DGU-20A5 Degasser, Shimadzu Prominence CBM-20A System Controller and Shimadzu Prominence CTO-20A Column Oven. […] The peak areas from the SRM data for carbutamide and test compound were analysed using the AB Sciex's Analyst software using the Quantitation Wizard. The peak area was plotted against the ng/mL concentration in 20 μL 3 to 30,000 ng/mL test compound solutions and the lower and upper range of linear response was determined. […]

[2] = in vivo; conditions: mouse, mice, oral gavage at 20 mg/kg, read-out: Brain Concentration

Compound: O=C(Nc1c2c(cc3c1CCC3)CCC2)NS(=O)(=O)c1ccco1
- concentration at 2 h [1]: 66.3 µg/mL
- concentration at 2 h [2]: 1340 ng/g
